Assay: Selectivity index, ratio of IC50 for equine serum BChE to IC50 for AChE in human erythrocytes
Format: cell-based

COc1cc2c(cc1OC)C(=O)C(Cc1cc[n+](Cc3ccccc3C)cc1C(C)=O)C2 (stereo unspecified)
Ratio IC50: 674
